Results taken from EP0361977A2, “Peptides having T cell suppressor activity” (IMM[…] INSTITUTE, INC., priority 1988, dated 1990).

Tested on: intestinal and serum enzymes
Assay: Enzymatic stability in rat intestinal juice and human serum (HPLC)
Conditions: 37°C in rat intestinal juice and human serum for up to 120 minutes

“Arg-Lys-Asp-Val-Dimethylamide [reference compound]” was tested, and the “degradation by intestinal and serum enzymes (HPLC)” value was “totally digested after only a few seconds”.
